# Compounds with a hit are over-represented: about 16% of the library has one in this group of screens.
# miR-21 reporter – raises the signal of a miR-21 reporter | Potency, µM (highest dose often 38.3 µM), without a hit: at the top dose reporter change, positive = more light | HeLa miR-21 FLuc reporter, luciferase, 48 h | 340,000 tested, under 10 active; active = well fitted rising curve with a large enough effect; inconclusive = small, poorly fitted or top-dose-only effect; inactive = no such curve, though single readings can be large or run the other way;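 further: % of control where 0% means no effect; miR-21 action dims this reporter so a rising signal means less miR-21 action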
#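 Luminescence from a firefly luciferase reporter carrying a miR-21 binding site downstream, stably expressed under a CMV promoter in HeLa cells that make miR-21 endogenously, reports miRNA modulation after 48 h compound exposure up to approximately 40uM final.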
# TDP1 block – TDP1 (human) enzyme inhibition | Potency, µM (top dose mostly 130 µM), without a hit: at the top dose activity change, negative = inhibition, actives largely listed as inhibitors | recombinant TDP1, AlphaScreen DNA substrate cleavage | 350,000 tested, 0.28% active; also: potency is read from the fitted curve at half-maximal effect; % is scaled to controls: 0 for no effect and ±100 for the full control effect; nearly all actives have a fitted effect of over 40% in size
#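 Recombinant human Tdp1 (E. coli-expressed, 1 nM final) preincubated with compounds 15 min at room temperature, then 5'-biotin/3'-phosphotyrosine-FITC DNA substrate (15 nM final) added for 5 min. AlphaScreen beads (10 ug/ml final) added 10 min; cleavage lowers signal.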
# TDP1 cell CPT – DT40-hTDP1 cell growth loss with CPT; Potency, µM (highest dose often 46.2 µM), without a hit: at the highest dose activity change, negative = growth inhibition, actives largely listed as inhibitors; 420,000 tested, 12% active; AID 686979; chicken DT40 Tdp1-/-;hTDP1 cells + 20 nM CPT, ATP luminescence, 48 h; also: potency is read from the fitted curve at half-maximal effect; % is scaled to controls: 0 for no effect and ±100 for the full control effect; nearly all actives have a fitted effect of over 55% in size
#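 Chicken DT40 Tdp1-/- cells complemented with human TDP1, 400 cells/well, exposed to compounds plus 20 nM camptothecin for at least 48 h at 37 C; viability read as ATP content by CellTiter-Glo luminescence.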
# TDP1 cell noCPT – qHTS for Inhibitors of human tyrosyl-DNA phosphodiesterase 1 (TDP1): qHTS in cells in absence of CPT; AID 686978, 2013; Potency, µM (doses to about 46.2 µM), for inactives: at the top dose activity change, negative = growth inhibition, hits mostly inhibitors; 420,000 tested, 15% active; DT40 Tdp1-/- hTDP1 cells, no CPT, ATP luminescence, 48 h; also: potency is read from the fitted curve at half-maximal effect; % is scaled to controls: 0 for no effect and ±100 for the full control effect; nearly all actives have a fitted effect of over 55% in size
#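 A cellular qHTS used chicken DT40 cells lacking endogenous Tdp1 but carrying stably transfected human TDP1. Compounds were applied without camptothecin, and cell growth kinetics were judged by ATP-dependent luminescence after ≥48 hr.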
# uPA surface inh – inhibitors of cell surface uPA generation; cell surface uPA generation assay, qHTS; Potency, µM (titrated, usually from 38.3 µM), inactives show at the highest dose activity change, negative = inhibition, hits mostly inhibitors; 330,000 tested, 0.31% active; AID 540303; active = well fitted inhibition curve with a large enough effect; inconclusive = small, poorly fitted or top-dose-only effect; inactive = no such curve, though single readings can be large or run the other way; tested in mouse RAW 264.7 cells; also: potency is read from the fitted curve at half-maximal effect; % is scaled to controls: 0 for no effect and ±100 for the full control effect; nearly all actives have a fitted effect of over 55% in size
# An asterisk follows results filed as active; ? = inconclusive; · = no result; [ ] = remark or other dose. Unless noted, calls follow the shape of the dose curve; as a rule, active = well fitted curve in the direction sought with a large enough effect; inconclusive = small, poorly fitted or top-dose-only effect, or another doubt; inactive = no such curve, though single readings can be large; an effect the other way counts as inactive or inconclusive.
structure	miR-21 reporter	TDP1 block	TDP1 cell CPT	TDP1 cell noCPT	uPA surface inh
O=C(CN1C(=O)c2ccccc2C1=O)Nc1ccccc1C(=O)NC1CCCCCC1	-4.5%	2.6%	-17.2%	-25.9%	-8.4%
O=C(CN1C(=O)C(=O)c2ccccc21)NC1CCCCC1	1.4%	0.0%	25.9µM*	23.1µM*	-8.3%
CCc1cccc(CC)c1NC(=O)CN1C(=O)C(=O)c2ccccc21	22.4%	-2.1%	5.17µM*	3.26µM*	·
O=C(CN1C(=O)C(=O)c2ccccc21)c1ccccc1	-0.6%	·	18.4µM*	4.11µM*	1.5%
O=C1C(=O)N(CCN2CCCCC2)c2ccccc21	-8.5%	-2.6%	-28.0%	-9.1%	3.1%
O=C1C(=O)N(Cc2cccs2)c2ccccc21	6.2%	3.6%	4.61µM*	5.17µM*	-8.6%
CN(Cc1ccccc1)C(=O)C1CCN(S(C)(=O)=O)CC1	6.0%	2.4%	-5.8%	-0.8%	1.6%
CCCN1C(=O)c2ccccc2NC1c1ccc(OC)c(COc2cccc(OC)c2)c1 (stereo not drawn)	·	-0.5%	?	15.8µM*	·
CCCCN1C(=O)c2ccccc2NC1c1ccc(OC)c(COc2ccc(NC(C)=O)cc2)c1 (stereo not drawn)	·	-3.1%	·	·	·
CCCN1C(=O)c2ccccc2NC1c1ccc(OC)c(COc2ccc([N+](=O)[O-])cc2)c1 (stereo not drawn)	·	3.0%	10µM*	10µM*	·
COc1cccc(OCc2cc(C3Nc4ccccc4C(=O)N3c3ccccc3)ccc2OC)c1 (stereo not drawn)	·	0.7%	10µM*	12.6µM*	·
COc1ccc(C2Nc3ccccc3C(=O)N2Cc2ccccc2)cc1COc1ccccc1F (stereo not drawn)	·	0.4%	?	14.1µM*	·
COc1ccc(N2C(=O)c3ccccc3NC2c2ccc(OC)c(COc3ccccn3)c2)cc1 (stereo not drawn)	-55.2%	2.9%	?	?	-0.6%
Cc1cccc(N2CCN(C(=O)CN3C(=O)COc4ccc(S(=O)(=O)N5CCCC5)cc43)CC2C)c1 (stereo not drawn)	3.9%	3.8%	·	·	·
C/C(CC(=O)Nc1ccc2c(c1)OCO2)=N\NC(=O)c1ccccc1N	-44.5%	1.2%	-0.3%	-9.4%	-4.8%

# Next part.
structure	miR-21 reporter	TDP1 block	TDP1 cell CPT	TDP1 cell noCPT	uPA surface inh
Cc1c(C)n(CCCN(C)C)c2ncnc(Nc3ccccc3)c12	-18.9%	·	13.7%	23.1%	1.3%
COc1ccc(CNc2ncnc3onc(C)c23)cc1	14.9%	1.1%	16.4µM*	13µM*	·
CCOc1ccc(CCNc2ncnc3onc(C)c23)cc1OCC	25.0%	4.2%	2.91µM*	2.06µM*	·
COc1ccccc1Nc1ncnc2c1c(C)c(C)n2CCCN(C)C	-6.2%	·	18.4µM*	?	-5.4%
CCOCCCNc1ncnc2onc(C)c12	0.1%	4.2%	-18.2%	?	·
CCOc1ccc(CCNC(=O)c2c(C)oc3ncnc(N4CCOCC4)c23)cc1	-2.0%	2.1%	?	-27.4%	·
CCOC(=O)c1c(C)oc2ncnc(NCCc3ccccc3)c12	-14.6%	5.3%	20.6µM*	23.1µM*	·
Cc1ccc2[nH]c3nc(SCC#N)nnc3c2c1	-3.1%	·	-6.5%	-7.0%	-1.1%
CN(C)CC(=O)N[C@@H]1CC[C@@H](CC(=O)NCCN2CCCCC2)O[C@@H]1CO	·	·	2.7%	8.6%	·
COc1ccc(CCC(=O)Nc2cccc(S(=O)(=O)N(C)C)c2)cc1OC	1.5%	7.9%	1.2%	-49.7%	0.8%
COc1cccc(CNC(=O)c2cc(-c3cccc(OC)c3)n[nH]2)c1	-25.1%	8.5%	?	?	·
Cc1noc2ncnc(NCCc3ccccc3)c12	15.9%	2.1%	7.31µM*	6.51µM*	·
COCCn1c(C)c(C)c2c(NCCc3ccccc3)ncnc21	-12.7%	·	23.1µM*	16.4µM*	-11.6%
Clc1ccc(-c2noc3ncnc(NCCc4ccccc4)c23)cc1	-6.1%	-8.5%	?	?	·
Cc1ccc(CCNc2ncnc3onc(C)c23)cc1	19.9%	-4.2%	1.84µM*	0.82µM*	·

# (more compounds)
structure	miR-21 reporter	TDP1 block	TDP1 cell CPT	TDP1 cell noCPT	uPA surface inh
Cc1c(C)n(CCc2ccccc2)c2ncnc(NCCCO)c12	-49.1%	·	?	?	-12.0%
O=C(NCc1ccccc1)C1=C[C@@H](c2ccc(C(F)(F)F)cc2)C[C@@H](OCCCCO)O1	·	·	?	25.9µM*	4.5%
O=C(Nc1ccccc1)C1=C[C@H](c2coc3ccccc3c2=O)C[C@H](OCCCCO)O1	-0.8%	3.8%	?	?	0.8%
O=C(Nc1ccccc1)C1=C[C@@H](c2coc3ccccc3c2=O)C[C@@H](OCCCCO)O1	-4.3%	2.6%	?	9.2µM*	7.7%
CC(=O)n1cc([C@@H]2C=C(C(=O)Nc3ccccc3)O[C@H](OCc3ccc(CO)cc3)C2)c2ccccc21	13.9%	5.1%	23.1µM*	13µM*	-0.7%
C#CCNC(=O)C1=C[C@H](c2csc3ccccc23)C[C@H](OCc2ccc(CO)cc2)O1	9.2%	3.8%	?	16.4µM*	5.3%
O=C(NCc1ccccc1)C1=C[C@H](c2ccc(C(F)(F)F)cc2)C[C@H](OCCCCO)O1	·	·	?	?	-10.1%
Cc1ccc(Cl)cc1NC(=O)Nc1c(C)n(C)n(-c2ccccc2)c1=O	1.1%	3.5%[56.1 µM]	8.6%	-5.5%	3.5%
O=C(c1ccc2c(c1)OCO2)c1ccc[nH]1	·	·	-21.8%	-20.2%	·
CC(=O)n1cc([C@@H]2C=C(C(=O)NCc3ccccc3)O[C@H](OCCCCO)C2)c2ccccc21	-1.6%	5.1%	?	18.4µM*	-0.8%
CC(=O)n1cc([C@H]2C=C(C(=O)NCc3ccccc3)O[C@@H](OCc3ccc(CO)cc3)C2)c2ccccc21	18.6%	7.7%	5.8µM*	3.26µM*	-11.7%
C#CCNC(=O)C1=C[C@@H](c2cn(C(C)=O)c3ccccc23)C[C@@H](OCc2ccc(CO)cc2)O1	6.0%	7.7%	23.1µM*	23.1µM*	8.9%
C#CCNC(=O)C1=C[C@@H](c2cn(C(C)=O)c3ccccc23)C[C@@H](OCCCCO)O1	-9.3%	3.8%	-0.1%	?	-2.3%
CC(=O)n1cc([C@@H]2C=C(C(=O)N3CCN(Cc4ccccc4)CC3)O[C@H](OCc3ccc(CO)cc3)C2)c2ccccc21	23.0%	6.4%	8.2µM*	8.2µM*	?
CC(=O)n1cc([C@H]2C=C(C(=O)NCc3ccccc3)O[C@@H](OCCCCO)C2)c2ccccc21	4.6%	7.7%	?	?	-53.2%
COC(=O)CSc1ccc(-c2nc3ccc(C)cc3[nH]2)cn1	-35.6%	0.7%	-28.0%	?	-5.6%
CC(C)C12CN3CC(C(C)C)(CN(C1)C3c1ccco1)C2=O (stereo not drawn)	-1.7%	1.0%	-2.5%	-14.0%	5.8%

# Compounds above with fluorine, in the order listed:
structure	miR-21 reporter	TDP1 block	TDP1 cell CPT	TDP1 cell noCPT	uPA surface inh
COc1ccc(C2Nc3ccccc3C(=O)N2Cc2ccccc2)cc1COc1ccccc1F (stereo not drawn)	·	0.4%	?	14.1µM*	·
O=C(NCc1ccccc1)C1=C[C@@H](c2ccc(C(F)(F)F)cc2)C[C@@H](OCCCCO)O1	·	·	?	25.9µM*	4.5%
O=C(NCc1ccccc1)C1=C[C@H](c2ccc(C(F)(F)F)cc2)C[C@H](OCCCCO)O1	·	·	?	?	-10.1%

# For convenience, some entries already given.
structure	miR-21 reporter	TDP1 block	TDP1 cell CPT	TDP1 cell noCPT	uPA surface inh
Cc1c(C)n(CCc2ccccc2)c2ncnc(NCCCO)c12	-49.1%	·	?	?	-12.0%
O=C(NCc1ccccc1)C1=C[C@@H](c2ccc(C(F)(F)F)cc2)C[C@@H](OCCCCO)O1	·	·	?	25.9µM*	4.5%
